Measured values from ChEMBL document CHEMBL4118068 (Eur J Med Chem, 2017).

The chains behind the UniProt entries cited, without tags or fusion partners.
UniProt P11229, whole entry: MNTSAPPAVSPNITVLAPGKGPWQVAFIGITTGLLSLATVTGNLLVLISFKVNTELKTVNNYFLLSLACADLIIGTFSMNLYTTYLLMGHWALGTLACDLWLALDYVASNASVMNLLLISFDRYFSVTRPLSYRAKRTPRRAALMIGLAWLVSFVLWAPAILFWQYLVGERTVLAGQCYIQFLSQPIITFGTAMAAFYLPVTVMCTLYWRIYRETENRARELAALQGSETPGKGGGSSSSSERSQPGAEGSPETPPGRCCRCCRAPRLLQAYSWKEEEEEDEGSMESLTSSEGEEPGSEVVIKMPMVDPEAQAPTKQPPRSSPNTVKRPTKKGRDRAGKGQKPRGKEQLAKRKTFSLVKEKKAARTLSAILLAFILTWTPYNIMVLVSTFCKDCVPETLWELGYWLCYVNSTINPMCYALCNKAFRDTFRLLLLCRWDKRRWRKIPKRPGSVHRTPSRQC
UniProt P08172, whole entry: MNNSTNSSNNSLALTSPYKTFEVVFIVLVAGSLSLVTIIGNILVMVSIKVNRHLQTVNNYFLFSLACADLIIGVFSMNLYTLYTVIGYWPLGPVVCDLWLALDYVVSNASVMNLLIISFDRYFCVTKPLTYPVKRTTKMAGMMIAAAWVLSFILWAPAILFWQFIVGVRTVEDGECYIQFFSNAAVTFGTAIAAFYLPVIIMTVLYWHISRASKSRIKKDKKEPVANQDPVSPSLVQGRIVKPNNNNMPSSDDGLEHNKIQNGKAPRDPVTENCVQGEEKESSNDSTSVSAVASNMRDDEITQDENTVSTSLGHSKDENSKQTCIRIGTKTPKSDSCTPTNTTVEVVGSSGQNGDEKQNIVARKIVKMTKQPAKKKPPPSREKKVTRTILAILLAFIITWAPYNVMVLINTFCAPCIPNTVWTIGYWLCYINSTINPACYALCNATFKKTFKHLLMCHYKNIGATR
UniProt P20309, whole entry: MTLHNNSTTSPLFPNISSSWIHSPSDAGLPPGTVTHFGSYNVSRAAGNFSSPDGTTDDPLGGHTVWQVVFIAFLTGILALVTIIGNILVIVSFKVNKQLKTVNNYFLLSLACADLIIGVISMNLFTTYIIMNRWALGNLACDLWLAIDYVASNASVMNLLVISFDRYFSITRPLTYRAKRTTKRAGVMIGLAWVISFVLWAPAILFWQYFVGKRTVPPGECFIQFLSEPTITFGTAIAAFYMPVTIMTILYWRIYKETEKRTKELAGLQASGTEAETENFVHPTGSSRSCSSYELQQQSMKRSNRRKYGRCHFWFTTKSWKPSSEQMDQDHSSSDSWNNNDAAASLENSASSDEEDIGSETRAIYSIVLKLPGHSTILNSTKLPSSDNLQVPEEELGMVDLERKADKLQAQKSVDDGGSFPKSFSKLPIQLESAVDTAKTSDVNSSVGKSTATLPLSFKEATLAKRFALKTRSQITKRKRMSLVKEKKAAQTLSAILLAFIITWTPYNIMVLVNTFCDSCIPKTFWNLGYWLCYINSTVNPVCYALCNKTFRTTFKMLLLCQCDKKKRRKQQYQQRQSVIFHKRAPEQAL
UniProt P08173, whole entry: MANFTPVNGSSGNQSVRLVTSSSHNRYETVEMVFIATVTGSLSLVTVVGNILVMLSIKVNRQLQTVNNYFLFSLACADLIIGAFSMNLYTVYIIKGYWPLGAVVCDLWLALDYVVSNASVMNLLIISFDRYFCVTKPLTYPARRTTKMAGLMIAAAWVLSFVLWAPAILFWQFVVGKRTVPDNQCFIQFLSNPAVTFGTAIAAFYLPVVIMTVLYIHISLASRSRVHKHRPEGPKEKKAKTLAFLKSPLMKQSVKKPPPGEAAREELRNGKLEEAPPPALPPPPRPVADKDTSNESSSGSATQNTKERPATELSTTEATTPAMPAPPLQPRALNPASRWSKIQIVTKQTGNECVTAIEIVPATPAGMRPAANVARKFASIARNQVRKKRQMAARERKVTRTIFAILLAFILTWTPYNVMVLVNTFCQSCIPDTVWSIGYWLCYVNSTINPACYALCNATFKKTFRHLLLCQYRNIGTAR
UniProt P08912, whole entry: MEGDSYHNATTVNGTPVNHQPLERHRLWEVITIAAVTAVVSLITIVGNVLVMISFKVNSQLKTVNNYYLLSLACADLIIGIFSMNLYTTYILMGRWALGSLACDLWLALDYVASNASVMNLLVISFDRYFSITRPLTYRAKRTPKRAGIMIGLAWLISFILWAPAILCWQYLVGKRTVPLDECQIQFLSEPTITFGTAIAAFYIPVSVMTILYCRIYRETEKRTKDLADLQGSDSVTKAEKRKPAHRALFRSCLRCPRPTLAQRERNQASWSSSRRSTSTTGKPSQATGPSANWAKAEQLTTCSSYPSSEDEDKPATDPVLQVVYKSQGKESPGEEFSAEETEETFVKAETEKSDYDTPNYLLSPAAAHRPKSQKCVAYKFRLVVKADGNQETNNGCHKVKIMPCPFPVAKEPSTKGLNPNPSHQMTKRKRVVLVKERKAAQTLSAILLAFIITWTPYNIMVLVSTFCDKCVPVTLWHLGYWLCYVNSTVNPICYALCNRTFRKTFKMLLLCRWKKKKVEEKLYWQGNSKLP

Legend:
[1] = target: Muscarinic acetylcholine receptor M1 (Homo sapiens, UniProt P11229); test: Displacement of [3H]NMS from recombinant human muscarinic M1 receptor expressed in CHOK1 cell membranes after 120 mins by scintillation counting method
[2] = target: Muscarinic acetylcholine receptor M2 (Homo sapiens, UniProt P08172); test: Displacement of [3H]NMS from recombinant human muscarinic M2 receptor expressed in CHOK1 cell membranes after 120 mins by scintillation counting method
[3] = target: Muscarinic acetylcholine receptor M3 (Homo sapiens, UniProt P20309); test: Displacement of [3H]NMS from recombinant human muscarinic M3 receptor expressed in CHOK1 cell membranes after 120 mins by scintillation counting method
[4] = target: Muscarinic acetylcholine receptor M4 (Homo sapiens, UniProt P08173); test: Displacement of [3H]NMS from recombinant human muscarinic M4 receptor expressed in CHOK1 cell membranes after 120 mins by scintillation counting method
[5] = target: Muscarinic acetylcholine receptor M5 (Homo sapiens, UniProt P08912); test: Displacement of [3H]NMS from recombinant human muscarinic M5 receptor expressed in CHOK1 cell membranes after 120 mins by scintillation counting method

SMILES | pKi [1] | pKi [2] | pKi [3] | pKi [4] | pKi [5]
C[C@@]1(C(=O)O[C@H]2CN3CCC2CC3)COCC(c2ccccc2)(c2ccccc2)O1 | 6.92 | 6.7 | 6.38 | 6.75 | 6.33
C[C@@]1(C(=O)O[C@@H]2CN3CCC2CC3)COCC(c2ccccc2)(c2ccccc2)O1 | 6.18 | 5.81 | 5.79 | 5.56 | 5.89
C[C@]1(C(=O)O[C@H]2CN3CCC2CC3)COCC(c2ccccc2)(c2ccccc2)O1 | 7.17 | 6.8 | 6.4 | 6.85 | 6.44
